Measurements reported in patent US8412459B2, “Method for determining the allergic potential of a compound” (Vlaamse Instelling Voor Technologisch Onderzoek (VITO), priority 2006, dated 2013).

How the values were obtained:
[1] = a priori known, from literature / in vivo tests; cited from earlier work
[2] = test system: CD34-DCs; test: Microarray gene expression in CD34-DCs; classification by LFC of gene 1 (SEQ ID NO 1, PBEF1) after 12 hours exposure; conditions: Ni and BC removed from the data base and used as test compounds

Substance: Nickel Chloride or Nickel Sulphate
- known sensitizing classification / strength [1]: moderate sensitizer
- ACD sensitizing potential predicted by the classification statement (LFC_12 averaged over a few individuals larger than zero) [2]: has an ACD sensitizing potential
